Ab-14 light chain CDR variants: yeast mating affinities

From the AlphaSeq antibody data of Li et al. 2023 (doi:10.1038/s41467-023-39022-2), copy in the FLAb collection.

All variants were tested on one target, the spike HR2 peptide PDVDLGDISGINAS (SARS-CoV-2).

Parent scFv Ab-14: VH joined to VL by the linker GGGGSGGGGSGGGGS. Changes lie in the light chain CDRs alone.
VH: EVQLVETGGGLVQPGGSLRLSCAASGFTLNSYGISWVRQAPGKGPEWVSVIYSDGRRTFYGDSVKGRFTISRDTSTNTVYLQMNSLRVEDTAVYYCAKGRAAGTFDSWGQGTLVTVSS
VL: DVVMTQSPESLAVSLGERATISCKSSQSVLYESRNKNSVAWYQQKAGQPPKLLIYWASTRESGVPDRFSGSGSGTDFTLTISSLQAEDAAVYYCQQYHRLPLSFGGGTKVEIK

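Phage display of a naive human antibody library on the peptide gave the parent. Designed CDR sequences, proposed from the first random library and measured here. Their group label is 14L_En_HC (En: ensemble of fine-tuned language models; HC: hill climbing; a sequence that several methods proposed may carry one label only). Affinity was read by AlphaSeq, a pooled yeast mating assay with surface-displayed partners. After mating in shaken culture at 30 °C for 16 h, diploids were selected and their barcode pairs sequenced. The ratio of observed to expected reads was calibrated, replicate by replicate, on BCL2-family standards whose Kd was known from biolayer interferometry. Each pool was mated in six replicate cultures.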

Each variant is given by its three light chain CDRs, as the data file delimits them; those of the parent are KSSQSVLYESRNKNSVA, WASTRES, QQYHRLPLS. Affinities are written as log10 Kd with Kd in nM; a lower number is a better binder. A pair that was not seen in that replicate is written "ND"; this usually means weak binding, but a binder can also be missed. The authors' rule: three or more of the six replicates give a measured affinity, fewer mean a poor binder. A sequence measured in both rounds can read differently, since the two assays cover different ranges. As a blank, each scFv also met three strains without target: over all light chain designs, 4% of these pairings were detected, typically at 2.64 and seldom below 1.59. Also given: how often the same scFv was detected with the empty control strains, with their mean in brackets.

CDR-L1	CDR-L2	CDR-L3	replicates, log10 nM	empty controls
KIGLVTNGISFSTSSVA	EQSTREN	QQYDRLPLS	1.22 0.58 0.45 0.59 0.55 1.14	0/18
TIGPMLMTESRNKNNVA	GMQTRER	QQYHRLPLS	-0.08 -0.06 -0.09 -0.24 -0.12 0.27	0/18
MLGDTVMQGMYSRNSVA	QEETRAD	QQYHHLPLS	0.66 0.63 0.77 0.62 0.01 0.52	1/18 (2.52)
TISMSVNMTSHGRNSVA	QAEMRES	QQYDRLPLS	1.03 1.61 1.00 1.99 1.69 1.13	0/18
ILSQSVLLGMHTKNSVA	QATMRFN	QQYHRLPLM	ND ND ND 1.45 ND 2.09	0/18
TISQSFMMENQFKNSVA	QASTREH	QCYDRLPLS	ND ND ND 2.37 ND ND	0/18
IISQVDAYESRLKNSIA	DQSTRGS	QQYDRLPLS	1.29 1.25 1.33 1.12 1.09 1.66	1/18 (3.59)
KLSESVRMESFNKNSVA	ENSTREA	QDYHRLPLS	ND ND 2.27 2.82 ND ND	0/18
MFSQLTYTGQRARNAVA	QASTREN	QQYHHLPLI	ND 1.61 1.60 1.91 2.51 1.82	2/18 (2.62)
KISMSTTFESRNKNSVA	ENSTREN	QSYHRLPLS	ND 3.03 2.72 ND 2.71 3.38	1/18 (4.27)
TISQSAGQESHNKNSVA	DLSVRGS	QQYHRLPLS	0.46 0.63 0.45 0.31 0.31 0.57	0/18
KLSISYLFESLEKNSIA	ENSTREK	QHYHRLPLS	ND ND ND ND ND ND	1/18 (2.33)
KLRQSTAYLMENKNSVA	ELTTRGS	QQYFRLPLS	0.34 0.61 0.37 0.40 -0.21 0.49	0/18
KISMYLNKESKAGNNVA	EMVNREA	QQYDRLPLS	1.66 2.01 1.80 1.95 2.17 1.67	1/18 (2.53)
SLAESAVMESRNKNSVA	DNSTRES	QHYDRLPLS	ND ND ND ND ND ND	0/18
KISQLVNFLGKNKNSVA	QMSTRES	QQYDRLPLS	2.70 1.81 2.25 1.66 1.93 1.10	0/18
KFGQSVLMGSYVRNSVA	QQSTRVN	QQYDRLPLS	0.62 0.26 0.24 0.79 0.23 0.90	0/18
KLRMSTGYESRMKDSIA	DNSTRGR	QQYHRLPLS	1.16 1.31 1.00 1.28 0.90 1.33	4/18 (2.25)
KLRMTTGYESRNKDSIA	DNSTRGR	QQYHRLPLS	ND ND 2.37 ND ND 2.88	0/18
KISGLVNFFGHAINSVA	EMETREN	QQYDRLPLS	1.25 0.86 1.12 1.12 0.90 1.02	1/18 (2.54)
QLGSVQDMTSKNKNSVA	EQSTREN	QQYHRLPLS	ND 0.70 0.57 1.10 0.86 0.67	0/18
KISQSILFMSGQKNAIA	QMEMREE	QQYHRLPLS	1.48 0.92 0.94 1.97 1.08 0.80	2/18 (2.29)
HISMSVGLTSFQKNSVA	ENSTREN	QQYDRLPLS	1.77 ND 2.23 1.90 2.11 2.31	2/18 (2.06)
TLTQSVGMLSHNKNSVA	DLSTRGS	QQYHRLPLS	0.34 0.12 0.00 -0.08 -0.01 0.20	1/18 (2.60)
KLSQYVGGESRNKSSLA	DNSTREE	QQYHRLPLS	ND ND ND ND ND ND	0/18
KLMQSTHIESFNKNNVA	EMTTRES	QSYDRLPLS	2.00 1.25 0.87 0.86 1.74 1.17	2/18 (2.31)
TLTQVTMVESYNKNSVA	QASTRLE	QDYHRLPLS	1.99 3.16 2.85 ND 1.94 2.69	0/18
NVGQLMDGVSRNKNSVA	HQSTRED	QHYHRLPLS	1.53 1.28 1.47 1.35 1.18 1.60	4/18 (2.44)
KLGDMVHTEVRNKNSIA	DMRTREQ	QQYYRLPLS	-0.23 -0.23 -0.24 -0.40 -0.63 0.05	0/18
HISQSVGMTARNKNSVA	ENSTRED	QQYDRLPLS	2.14 ND ND ND 1.97 2.96	0/18
MISGSVMSESRLKNSVA	QTTTREV	QQYDRLPLS	-0.66 0.05 0.11 -0.27 0.21 0.02	0/18
HISQSVGMTSFQKNSVA	ENSTREN	QQYDRLPLS	ND ND 1.92 3.28 ND 2.30	1/18 (2.66)
SLMQVGGYESNSHNSIA	DLRTRES	QQYHRLPLS	0.63 0.66 0.32 0.46 0.42 0.40	1/18 (4.09)

5 of these entries, quoted again:

| CDR-L1 | CDR-L2 | CDR-L3 | replicates, log10 nM | empty controls |
|---|---|---|---|---|
| KFGQSVLMGSYVRNSVA | QQSTRVN | QQYDRLPLS | 0.62 0.26 0.24 0.79 0.23 0.90 | 0/18 |
| KISQLVNFLGKNKNSVA | QMSTRES | QQYDRLPLS | 2.70 1.81 2.25 1.66 1.93 1.10 | 0/18 |
| HISQSVGMTSFQKNSVA | ENSTREN | QQYDRLPLS | ND ND 1.92 3.28 ND 2.30 | 1/18 (2.66) |
| TISQSFMMENQFKNSVA | QASTREH | QCYDRLPLS | ND ND ND 2.37 ND ND | 0/18 |
| TIGPMLMTESRNKNNVA | GMQTRER | QQYHRLPLS | -0.08 -0.06 -0.09 -0.24 -0.12 0.27 | 0/18 |